Values quoted from earlier work in US6511970B1, “Prevention of ovarian cancer by administration of products that induce transforming growth factor-beta and/or apoptosis in the ovarian epithelium” (New Life Pharmaceuticals Inc., priority 1996, dated 2003).

Conditions: ppm (mg/kg); cited from earlier work

[Se] [selenium]
level at which it becomes toxic: 8-10 ppm
